Experiments:
Format in all cases: cell-based
Details in all cases: Oocyte, filed as positive allosteric modulator
[1] = target: Glutamate receptor ionotropic, NMDA 2B (Rattus norvegicus) (UniProt Q00960)
[2] = target: Glutamate receptor ionotropic, NMDA 2C (Rattus norvegicus) (UniProt Q00961)
[3] = target: Glutamate receptor ionotropic, NMDA 2D (Rattus norvegicus) (UniProt Q62645)
[4] = target: Glutamate receptor ionotropic, NMDA 2B (Rattus norvegicus) (UniProt Q00960); remark: listed apart in the source
[5] = target: Glutamate receptor ionotropic, NMDA 2C (Rattus norvegicus) (UniProt Q00961); remark: listed apart in the source
[6] = target: Glutamate receptor ionotropic, NMDA 2D (Rattus norvegicus) (UniProt Q62645); remark: listed apart in the source

Protein sequences, listed by entry. Tags and fused reporters are not part of them. Lines headed by an entry give the natural chain unless they say otherwise; changes in a name come on top.
UniProt Q00960, whole entry, looked up: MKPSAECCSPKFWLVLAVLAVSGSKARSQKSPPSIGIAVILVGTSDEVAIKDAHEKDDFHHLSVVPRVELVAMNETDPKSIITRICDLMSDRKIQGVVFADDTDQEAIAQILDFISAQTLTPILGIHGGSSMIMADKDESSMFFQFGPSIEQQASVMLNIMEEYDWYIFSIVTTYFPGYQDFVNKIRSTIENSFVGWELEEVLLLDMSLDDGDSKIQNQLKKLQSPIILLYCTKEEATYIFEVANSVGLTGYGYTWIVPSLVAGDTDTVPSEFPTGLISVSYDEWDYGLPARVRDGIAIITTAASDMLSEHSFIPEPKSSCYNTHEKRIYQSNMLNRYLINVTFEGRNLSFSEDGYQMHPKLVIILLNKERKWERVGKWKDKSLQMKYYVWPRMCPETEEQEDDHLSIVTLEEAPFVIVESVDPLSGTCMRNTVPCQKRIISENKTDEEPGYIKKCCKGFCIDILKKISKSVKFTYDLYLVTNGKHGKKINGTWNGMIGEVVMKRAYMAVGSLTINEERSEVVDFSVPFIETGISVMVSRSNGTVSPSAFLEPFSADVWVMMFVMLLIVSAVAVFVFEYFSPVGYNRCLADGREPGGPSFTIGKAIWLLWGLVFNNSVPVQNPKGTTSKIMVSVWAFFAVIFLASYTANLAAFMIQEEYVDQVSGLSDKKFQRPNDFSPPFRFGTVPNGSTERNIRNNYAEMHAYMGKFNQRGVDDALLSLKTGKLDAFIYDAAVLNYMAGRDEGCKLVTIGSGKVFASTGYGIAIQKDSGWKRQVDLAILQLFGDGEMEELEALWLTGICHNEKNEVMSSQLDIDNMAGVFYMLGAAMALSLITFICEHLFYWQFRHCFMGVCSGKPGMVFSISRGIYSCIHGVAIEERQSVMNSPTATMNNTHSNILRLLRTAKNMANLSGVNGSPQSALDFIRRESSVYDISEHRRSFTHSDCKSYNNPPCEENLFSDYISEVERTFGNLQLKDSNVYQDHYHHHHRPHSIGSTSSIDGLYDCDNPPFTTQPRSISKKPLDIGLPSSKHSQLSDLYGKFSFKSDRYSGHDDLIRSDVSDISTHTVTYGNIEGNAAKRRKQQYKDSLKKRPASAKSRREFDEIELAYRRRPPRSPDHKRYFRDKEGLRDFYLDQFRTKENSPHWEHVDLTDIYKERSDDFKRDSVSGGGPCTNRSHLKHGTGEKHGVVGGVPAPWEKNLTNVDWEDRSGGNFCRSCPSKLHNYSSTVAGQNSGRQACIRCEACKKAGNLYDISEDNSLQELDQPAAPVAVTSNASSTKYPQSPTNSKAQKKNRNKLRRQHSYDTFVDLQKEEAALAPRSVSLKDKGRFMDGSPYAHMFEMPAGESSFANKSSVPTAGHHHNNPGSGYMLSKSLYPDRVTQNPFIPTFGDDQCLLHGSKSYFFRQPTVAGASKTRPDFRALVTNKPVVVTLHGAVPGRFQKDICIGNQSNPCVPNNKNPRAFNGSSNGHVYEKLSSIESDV
UniProt Q00961: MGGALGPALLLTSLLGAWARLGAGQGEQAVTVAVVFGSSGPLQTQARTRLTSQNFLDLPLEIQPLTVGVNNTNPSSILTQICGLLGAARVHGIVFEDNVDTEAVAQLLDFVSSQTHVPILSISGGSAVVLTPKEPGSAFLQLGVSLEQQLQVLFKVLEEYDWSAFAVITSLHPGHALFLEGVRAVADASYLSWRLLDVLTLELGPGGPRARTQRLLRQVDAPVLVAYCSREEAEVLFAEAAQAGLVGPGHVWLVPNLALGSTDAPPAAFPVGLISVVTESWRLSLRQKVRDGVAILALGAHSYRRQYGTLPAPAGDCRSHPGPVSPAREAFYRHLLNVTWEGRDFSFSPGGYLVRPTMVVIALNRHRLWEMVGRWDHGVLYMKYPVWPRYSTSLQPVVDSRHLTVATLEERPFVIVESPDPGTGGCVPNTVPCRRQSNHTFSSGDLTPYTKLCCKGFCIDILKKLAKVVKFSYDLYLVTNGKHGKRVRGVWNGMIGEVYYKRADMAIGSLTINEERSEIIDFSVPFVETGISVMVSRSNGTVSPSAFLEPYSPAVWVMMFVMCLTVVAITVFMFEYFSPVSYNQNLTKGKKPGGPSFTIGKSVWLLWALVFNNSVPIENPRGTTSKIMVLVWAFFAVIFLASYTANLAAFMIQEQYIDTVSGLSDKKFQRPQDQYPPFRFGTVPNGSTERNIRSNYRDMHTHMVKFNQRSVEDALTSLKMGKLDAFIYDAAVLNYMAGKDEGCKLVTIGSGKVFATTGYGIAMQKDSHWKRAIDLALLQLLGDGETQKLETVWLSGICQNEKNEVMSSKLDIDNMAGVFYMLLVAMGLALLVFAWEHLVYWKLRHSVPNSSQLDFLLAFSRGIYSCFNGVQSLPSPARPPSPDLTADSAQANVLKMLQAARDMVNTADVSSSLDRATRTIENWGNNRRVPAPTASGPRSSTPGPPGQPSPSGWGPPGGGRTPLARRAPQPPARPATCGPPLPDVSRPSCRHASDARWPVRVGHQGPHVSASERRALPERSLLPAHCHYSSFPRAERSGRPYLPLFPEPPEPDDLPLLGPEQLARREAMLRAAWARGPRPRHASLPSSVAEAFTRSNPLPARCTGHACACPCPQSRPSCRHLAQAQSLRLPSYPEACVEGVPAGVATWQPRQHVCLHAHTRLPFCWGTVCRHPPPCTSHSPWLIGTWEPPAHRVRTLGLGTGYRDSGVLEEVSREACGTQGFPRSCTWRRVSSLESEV
UniProt Q62645, whole entry: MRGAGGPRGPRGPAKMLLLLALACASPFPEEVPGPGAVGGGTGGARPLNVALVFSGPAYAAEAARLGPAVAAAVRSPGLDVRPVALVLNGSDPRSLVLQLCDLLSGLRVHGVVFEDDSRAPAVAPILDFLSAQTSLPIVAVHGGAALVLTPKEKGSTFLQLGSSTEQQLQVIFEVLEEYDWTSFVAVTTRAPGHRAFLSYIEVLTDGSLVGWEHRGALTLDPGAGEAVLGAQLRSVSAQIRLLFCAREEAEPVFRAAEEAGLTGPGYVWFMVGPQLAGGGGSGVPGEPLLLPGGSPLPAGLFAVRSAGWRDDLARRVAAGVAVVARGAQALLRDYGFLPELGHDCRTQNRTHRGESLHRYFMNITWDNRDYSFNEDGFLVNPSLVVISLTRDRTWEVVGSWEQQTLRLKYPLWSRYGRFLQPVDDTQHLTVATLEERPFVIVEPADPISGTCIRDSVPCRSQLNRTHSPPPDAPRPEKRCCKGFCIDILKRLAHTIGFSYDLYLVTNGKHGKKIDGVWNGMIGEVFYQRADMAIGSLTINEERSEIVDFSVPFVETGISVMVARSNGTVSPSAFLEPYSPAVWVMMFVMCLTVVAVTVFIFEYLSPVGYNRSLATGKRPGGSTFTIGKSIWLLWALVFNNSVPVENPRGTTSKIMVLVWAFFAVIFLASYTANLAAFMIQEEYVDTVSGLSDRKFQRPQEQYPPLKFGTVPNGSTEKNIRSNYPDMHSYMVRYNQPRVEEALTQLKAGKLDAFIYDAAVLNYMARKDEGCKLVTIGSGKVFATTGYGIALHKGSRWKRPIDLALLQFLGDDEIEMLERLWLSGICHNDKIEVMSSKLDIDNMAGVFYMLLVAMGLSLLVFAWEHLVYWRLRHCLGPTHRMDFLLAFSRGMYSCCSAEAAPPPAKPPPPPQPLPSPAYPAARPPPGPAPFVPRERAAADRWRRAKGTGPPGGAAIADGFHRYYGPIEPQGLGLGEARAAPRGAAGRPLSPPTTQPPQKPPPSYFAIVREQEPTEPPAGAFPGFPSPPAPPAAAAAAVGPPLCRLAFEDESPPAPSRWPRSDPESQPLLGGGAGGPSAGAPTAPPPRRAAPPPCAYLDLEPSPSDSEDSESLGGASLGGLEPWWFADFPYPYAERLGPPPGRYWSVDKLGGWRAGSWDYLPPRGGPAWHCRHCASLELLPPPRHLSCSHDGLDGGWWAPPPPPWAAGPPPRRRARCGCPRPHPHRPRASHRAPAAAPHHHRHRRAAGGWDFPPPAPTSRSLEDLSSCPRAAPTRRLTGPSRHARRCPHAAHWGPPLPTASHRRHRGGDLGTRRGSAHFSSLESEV

| Structure (SMILES) | Emax [1] [%] | Emax [2] [%] | Emax [3] [%] | Emax [4] [%] | Emax [5] [%] | Emax [6] [%] |
| --- | --- | --- | --- | --- | --- | --- |
| CCc1sc2ncn(CC(=O)N3CC(C)(F)C3)c(=O)c2c1-c1ccc(F)c(Br)c1 | 499 | 1170 | 1650 |  |  |  |
| Cc1sc2ncn(CC(=O)N3CC(C)(F)C3)c(=O)c2c1-c1ccc2ccn(C)c2c1 | 676 | 730 | 1040 |  |  |  |
| Cc1sc2ncn(CC(=O)N3CC(C)(F)C3)c(=O)c2c1-c1cccc(Br)c1 | 350 | 774 | 1350 |  |  |  |
| Cc1sc2ncn(CC(=O)N3CC(C)(C)C3)c(=O)c2c1-c1cccc(Br)c1 | 254 | 418 | 640 |  |  |  |
| Cc1sc2ncn(CC(=O)N3CC(C)(F)C3)c(=O)c2c1-c1cccc(OC(F)(F)F)c1 | 310 | 666 | 1380 |  |  |  |
| Cc1sc2ncn(CC(=O)N3CCC(C)C3)c(=O)c2c1-c1cccc(Br)c1 (configuration not stated) | 221 | 725 | 1350 |  |  |  |
| Cc1sc2ncn(CC(=O)N3CC(C)(F)C3)c(=O)c2c1-c1cccc(Cl)c1F | 306 | 930 | 1320 |  |  |  |
| CCCC1(F)CN(C(=O)Cn2cnc3sc(C)c(-c4cccc(Br)c4)c3c2=O)C1 | 153 | 234 | 343 |  |  |  |
| CC1(F)CN(C(=O)Cn2cnc3sc([N+](=O)[O-])c(-c4ccc(F)c(Br)c4)c3c2=O)C1 | 282 | 544 | 615 |  |  |  |
| CCC1(F)CN(C(=O)Cn2cnc3sc(C)c(-c4cccc(Br)c4)c3c2=O)C1 | 287 | 734 | 1220 |  |  |  |
| Cc1sc2ncn(CC(=O)N3CC(C)(F)C3)c(=O)c2c1-c1cccc(C(F)(F)F)c1 | 253 | 710 | 1370 |  |  |  |
| Cc1sc2ncn(CC(=O)N3CC(F)C3)c(=O)c2c1-c1cccc(Br)c1 | 271 | 358 | 396 |  |  |  |
| Cc1sc2ncn(CC(=O)N3CC(C)(F)C3)c(=O)c2c1-c1ccc(F)c(Cl)c1 | 362 | 632 | 1620 |  |  |  |
| Cc1sc2ncn(CC(=O)N3CC(C)(F)C3)c(=O)c2c1-c1ccc(F)c(Br)c1 | 251 | 386 | 1350 |  |  |  |
| Cc1sc2ncn(CC(=O)N3CCC[C@H]3C)c(=O)c2c1-c1cccc(Br)c1 | 392 | 427 | 379 |  |  |  |
| CC1(F)CN(C(=O)Cn2cnc3scc(-c4ccc(F)c(Br)c4)c3c2=O)C1 | 387 | 775 | 1540 |  |  |  |
| Cc1sc2ncn(CC(=O)N3CC(C)(F)C3)c(=O)c2c1-c1ccc(F)c(OC(C)C)c1 | 404 | 1080 | 1600 |  |  |  |
| Cc1sc2ncn(CC(=O)N3CC(C)(F)C3)c(=O)c2c1-c1ccc(F)c(C#N)c1 | 346 | 1200 | 1750 |  |  |  |
| Cc1sc2ncn(CC(=O)N3CC[C@H](F)C3)c(=O)c2c1-c1cccc(Br)c1 | 616 | 1130 | 2310 |  |  |  |
| Cc1sc2ncn(CC(=O)N3CC(C)(F)C3)c(=O)c2c1-c1cccc(Cl)c1 | 303 | 683 | 1420 |  |  |  |

| Structure (SMILES) | Emax [1] [%] | Emax [2] [%] | Emax [3] [%] | Emax [4] [%] | Emax [5] [%] | Emax [6] [%] |
| --- | --- | --- | --- | --- | --- | --- |
| C#CC1(F)CN(C(=O)Cn2cnc3sc(C)c(-c4cccc(Br)c4)c3c2=O)C1 | 106 | 91 | 100 |  |  |  |
| Cc1sc2ncn(CC(=O)N3CC(C)(F)C3)c(=O)c2c1-c1cc(F)cc(Cl)c1 | 343 | 928 | 1270 |  |  |  |
| Cc1sc2ncn(CC(=O)N3CC(C)(F)C3)c(=O)c2c1-c1ccc(Cl)c(F)c1 | 310 | 877 | 1280 |  |  |  |
| Cc1sc2ncn(CC(=O)N3CCC(F)(F)C3)c(=O)c2c1-c1cccc(Br)c1 | 315 | 738 | 1160 |  |  |  |
| Cc1sc2ncn(CC(=O)N3CC(C)(F)C3)c(=O)c2c1-c1ccc2c(c1)OC(F)(F)O2 | 368 | 1060 | 1450 |  |  |  |
| Cc1sc2ncn(CC(=O)N3CC(C)C3)c(=O)c2c1-c1cccc(Br)c1 | 236 | 750 | 614 |  |  |  |
| Cc1sc2ncn(CC(=O)N3CCC(C)(F)C3)c(=O)c2c1-c1cccc(Br)c1 (configuration not stated) | 278 | 877 | 1320 |  |  |  |
| Cc1sc2ncn(CC(=O)N3CC(C)(F)C3)c(=O)c2c1-c1ccc(Cl)c(Cl)c1 | 359 | 582 | 1080 |  |  |  |
| Cc1sc2ncn(CC(=O)N3CCC[C@@H]3C)c(=O)c2c1-c1cccc(Br)c1 | 241 | 410 | 428 |  |  |  |
| Cc1sc2ncn(CC(=O)N3CC(C)(F)C3)c(=O)c2c1-c1ccc(F)c(C(F)(F)F)c1 | 216 | 702 | 1380 |  |  |  |
| Cc1sc2ncn(CC(=O)N3CC(C)(F)C3)c(=O)c2c1-c1cc(Cl)ccc1F | 275 | 1020 | 1220 |  |  |  |
| Cc1sc2ncn(CC(=O)N3CC[C@@H](F)C3)c(=O)c2c1-c1cccc(Br)c1 | 370 | 522 | 560 |  |  |  |
| Cc1sc2ncn(CC(=O)N3CC(C)(F)C3)c(=O)c2c1-c1ccc2ccccc2c1 | 531 | 721 | 1980 |  |  |  |
| Cc1sc2ncn(CC(=O)N3CC[C@@H](O)C3)c(=O)c2c1-c1cccc(Br)c1 | 103 | 110 | 103 |  |  |  |
| Cc1sc2ncn(CC(=O)N3CCCC3)c(=O)c2c1-c1cccc(Br)c1 |  |  |  | 274 | 491 | 654 |
| Cc1sc2ncn(CC(=O)N3CCC3)c(=O)c2c1-c1cccc(Br)c1 | 310 | 301 | 505 |  |  |  |
| CC1(F)CN(C(=O)Cn2cnc3sc(C(F)(F)F)c(-c4ccc(F)c(Br)c4)c3c2=O)C1 | 528 | 1050 | 1990 |  |  |  |
| CC1(F)CN(C(=O)Cn2cnc3sc(C#N)c(-c4ccc(F)c(Br)c4)c3c2=O)C1 | 347 | 1080 | 702 |  |  |  |
| Cc1sc2ncn(CC(=O)N3CC(F)(C4CC4)C3)c(=O)c2c1-c1cccc(Br)c1 | 222 | 531 | 1040 |  |  |  |

— ChEMBL document CHEMBL6134891, “Thienopyrimidinone Derivatives as a GluN2B/C/D Biased, Positive Allosteric Modulator of the N-Methyl-d-Aspartate Receptor” (J Med Chem, 2025)
